Experimental data reported in PMC8535069.

B1: Gαo-GFP wild-type [human] / His6-RGS19 [not stated] (parent)
chain 1: MGCTLSAEERAALERSKAIEKNLKEDGISAAKDVKLLLLGAGESGKSTIVKQMKIIHEDGFSGEDVKQYKPVVYSNTIQSLAAIVRAMDTLGIEYGDKERKADAKMVCDVVSRMEDTEPFSAELLSAMMRLWGDSGIQECFNRSREYQLNDSAKYYLDSLDRIGAADYQPTEQDILRTRVKTTGIVETHFTFKNLHFRLFDVGGQRSERKKWIHCFEDVTAIIFCVALSGYDQVLHEDETTNRMHESLMLFDSICNNKFFIDTSIILFLNKKDLFGEKIKKSPLTICFPEYTGPNTYEDAAAYIQAQFESKNRSPNKEIYCHMTCATDTNNIQVVFDAVTDIIIANNLRGCGLY
chain 2: MPTPHEAEKQITGPEEADRPPSMSSHDTASPAAPSRNPCCLCWCCCCSCSWNQERRRAWQASRESKLQPLPSCEVCATPSPEEVQSWAQSFDKLMHSPAGRSVFRAFLRTEYSEENMLFWLACEELKAEANQHVVDEKARLIYEDYVSILSPKEVSLDSRVREGINKKMQEPSAHTFDDAQLQIYTLMHRDSYPRFLSSPTYRALLLQGPSQSSSEA

Variants of: B1
Test: co-immunoprecipitation (IP: GFP) with Western blot quantification
Conditions: N2a cells, mean ± SEM from 5 independent experiments, p = 0.0005 vs WT, parent: 1, read off a plot

Question: How did the ratio to parent (folds over WT) turn out when chain 1 Q52P was run?
Answer: 0.33

Same assay, conditions: N2a cells, mean ± SEM from 5 independent experiments, p = 0.0028 vs WT, parent: 1, read off a plot

Question: With chain 1 Q52R as the variant, how does the ratio to parent (folds over WT) read?
Answer: 0.45
